Measurements taken from patent US11364211B2, “Methods for selecting phosphatase selective and non-selective phosphatase inhibitors” (MEDICAL RESEARCH COUNCIL, priority 2015, dated 2022).

Sequences of proteins named here, by UniProt entry; tags and fusion partners are left off. Residues count along the entry.
UniProt Q5SWA1, 340-698: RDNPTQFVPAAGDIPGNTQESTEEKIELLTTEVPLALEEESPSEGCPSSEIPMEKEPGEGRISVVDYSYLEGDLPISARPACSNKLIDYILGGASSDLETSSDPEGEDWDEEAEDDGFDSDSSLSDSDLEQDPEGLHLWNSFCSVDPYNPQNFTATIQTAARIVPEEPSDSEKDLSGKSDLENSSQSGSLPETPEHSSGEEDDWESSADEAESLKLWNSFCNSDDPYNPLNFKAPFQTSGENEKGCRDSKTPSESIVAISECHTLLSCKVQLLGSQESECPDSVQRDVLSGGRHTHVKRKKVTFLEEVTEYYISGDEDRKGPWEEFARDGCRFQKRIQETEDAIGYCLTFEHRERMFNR
UniProt O75807, 325-636: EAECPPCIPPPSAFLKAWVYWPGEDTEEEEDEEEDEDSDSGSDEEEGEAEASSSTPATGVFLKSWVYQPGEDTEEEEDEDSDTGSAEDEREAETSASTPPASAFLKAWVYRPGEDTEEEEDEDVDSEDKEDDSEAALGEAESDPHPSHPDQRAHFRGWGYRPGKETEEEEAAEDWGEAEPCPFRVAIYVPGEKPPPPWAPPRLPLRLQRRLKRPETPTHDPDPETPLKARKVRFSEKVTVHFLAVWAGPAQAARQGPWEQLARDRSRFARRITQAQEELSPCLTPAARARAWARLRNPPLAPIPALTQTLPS
UniProt P36873, whole entry partner: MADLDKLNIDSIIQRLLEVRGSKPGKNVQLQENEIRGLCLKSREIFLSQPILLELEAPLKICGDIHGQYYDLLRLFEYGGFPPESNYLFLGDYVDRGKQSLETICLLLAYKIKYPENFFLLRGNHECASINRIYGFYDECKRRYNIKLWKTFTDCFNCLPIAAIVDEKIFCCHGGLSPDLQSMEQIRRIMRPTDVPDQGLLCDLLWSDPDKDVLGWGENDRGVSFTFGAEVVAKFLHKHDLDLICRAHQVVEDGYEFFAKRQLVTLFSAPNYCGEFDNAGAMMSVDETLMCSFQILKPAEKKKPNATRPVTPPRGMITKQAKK

Legend:
PPP1R15B-PP1 complex = biological target: T1, PPP1R15B-PP1 complex (Homo sapiens, UniProt Q5SWA1); test: SPR steady-state binding to R15B-PP1c holophosphatase on streptavidin chip
T1 construct: 340-698 of PPP1R15B were His-tagged and cloned into pMAL-c5x; made in house; host or cells: R15B fragment: E. coli BL21-Gold; BAP-PP1γ: Sf9 insect cells (baculovirus)
Method: (§1) The streptavidin coated surface was activated by 1 min injection with a solution of 50 mM NaOH and 1 M NaCl. Biotin-PP1 was diluted in the running buffer (50 mM Tris pH 7.5, 100 mM NaCl, 0.1 mM EGTA, 1 mM MnCl2, 0.05% Tween 20) and injected at approximately 300 nM concentration directly to streptavidin coated surface for 100 sec or to reach immobilization level of biotin-PP1 corresponding to ˜7000 RU. A blank immobilization was performed for one of the SA sensor chip surface to use as a reference.
(§2) With minor deviations, the same procedure and conditions were used in all binding experiments. Small molecules were stored as 50 mM stock solutions in 100% DMSO. Prior to determining binding constants, serial dilutions of either 12 or 8 concentrations of the compounds were prepared in the running buffer in a 96-well plate. […] Then, without regenerating the surface, the compound dilution series was injected onto the surface of the chip Sensorgrams were analyzed using the Biacore T200 evaluation software and the binding constants determined based on a steady-state model. Kinetic experiments are carried out using different concentrations of the compound and their respective equilibrium binding levels determined.
(§3) Surface Plasmon Resonance (SPR) was used to measure the binding affinity of compounds to the PPP1R15A/B-PP1 phosphatase complex. […]

PPP1R15A-PP1 complex = biological target: T2, PPP1R15A-PP1 complex (Homo sapiens, UniProt O75807); test: SPR steady-state binding to R15A-PP1c holophosphatase on streptavidin chip
T2 construct: the cDNAs encoding amino acids 325-636 of PPP1R15A; made in house; host or cells: R15A fragment: E. coli BL21-Gold; BAP-PP1γ: Sf9 insect cells (baculovirus)
Method: as §1, §2, §3

PP1c [1] = biological target: T3, PP1c (Homo sapiens, UniProt P36873); test: SPR binding to PP1c alone immobilized on chip
Method: The streptavidin coated surface was activated by 1 minute injection with a solution of 50 mM NaOH and 1 M NaCl three times at a flow rate of 10 μl/min. bio-GBZ or bio-PP1c was diluted in the running buffer (50 mM Tris pH 7.5, 100 mM NaCl, 0.1 mM EGTA, 0.05% Tween 20, 0.1% DMSO) and injected at approximately 300 nM concentration at a flow rate of 10 μl/min directly to streptavidin coated surface to reach immobilization level of bio-GBZ or bio-PP1c corresponding to ˜200 and 6000 RU, respectively. A blank immobilization was performed for one of the SA sensor chip surface to use as a reference.
With minor deviations, the same procedure and conditions were used in all binding experiments. Small molecules were stored as 50 mM stock solutions in 100% DMSO. Prior to determining binding constants, serial dilutions of either 12 or 8 concentrations of the compounds were prepared in the running buffer in a 96-well plate. […] This was followed by 1 minute stabilization period, to wash off any unspecific binding. Then, without regenerating the surface, the compound dilution series was injected onto the surface of the chip at a flow rate of 30 μl/min for 1 minute, followed by 2 minutes dissociation time. […]
Kinetic experiments are carried out using different concentrations of the compound and their respective equilibrium binding levels determined.

PP1c [2] = biological target: T3, PP1c; test: PP1c catalytic activity assay (EnzChek); assay type: biochemical; settings: purified PP1c 30 nM, 30 minutes at 4° C.
Method: Purified PP1c (30 nM) was incubated in 50 mM Tris pH 7, 1.5 mM EGTA, 3 mM MnCl2, 0.01% Brij-35, 0.15% β-mercaptoethanol with indicated concentrations of CalyculinA, GBZ, Sal003, Sephin1 and TST3 for 30 minutes at 4° C. Residual activity of PP1c was then measured using the EnzChek Phosphatase Assay Kit (Thermo Fisher Scientific) according to the supplier's instructions.

binding to R15B-PP1c (in words) (PPP1R15B-PP1 complex): not or weakly
Kd (PPP1R15B-PP1 complex; steady-state affinity): 23 µM
binding to R15A-PP1c (in words) (PPP1R15A-PP1 complex): strongly bound
Kd (PPP1R15A-PP1 complex; steady-state affinity): 0.786 µM
binding to PP1c alone (in words) (PP1c [1]): not to PP1c alone
inhibition of PP1c in enzymatic assay (PP1c [2]): does not inhibit PP1c
SMILES: NC(N)=N/N=C/c1ccccc1Cl [Sephin1]
